Compound activity from PubChem BioAssay.
The list is not random: actives were taken first. Their share in the collection is about 4.2%.
Yeast UUG start: modulators of yeast start codon fidelity, primary screen, whole organism, S. cerevisiae, single point, plate reader; activity score, % at 18.7 µM; actives 0.13% (n = 350,000); S. cerevisiae UUG-firefly luciferase reporter, luminescence/redox ratio;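 active = replicate mean at a twofold rise or more, about +100% in these data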;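 also: firefly luciferase made from a UUG start codon reports start codon fidelity; reporter light over untreated wells divided by growth signal over untreated wells; some hits fall short of that in this replicate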
NALP1 yeast inh: NALP1 inflammasome inhibitors in reconstituted yeast, colorimetric, S. cerevisiae, triplicate retest; 280,000 tested, 0.61% active; S. cerevisiae NALP1/ASC/caspase-1 growth, X-gal OD620, 72 h; AID 2071, 2009; inhibition, % at 10 µM; in the data active means inhibition mostly above about 24%, no sharp cut-off; inactive means mostly below about 32%
MC4R antag cAMP: MC4R antagonists of cAMP signaling, primary screen, cell-based, TR-FRET, antagonist arm of biased-ligand search. Melanocortin receptor 4 (Homo sapiens), P32245. AID 540295, 2011. inhibition, % at 6.5 µM. MC4R-expressing cells, MTII-stimulated cAMP, LANCE TR-FRET. 360,000 tested, 0.48% active;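 active means inhibition above its plate's cutoff, the mean of tested wells on that plate plus 3 SD, cut at about 29% in these data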;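 further: 0% = Melanotan II alone and 100% = Melanotan II plus saturating MCL0020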
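Material: human MC4R-expressing U2OS cells. Probe or stimulus: Melanotan II challenge. Dosing: 6.5 µM single dose. Times: 30-min compound, 1-h challenge, 1-h detection, room temperature. Technique: TR-FRET with Eu-cAMP and labeled anti-cAMP, 671 nm. Replication: singlicate.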
HDAC3 inhib: HDAC3 deacetylase inhibitors, primary screen, biochemical, fluorescence, cell-free homogeneous; recombinant HDAC3, fluorogenic peptide/trypsin coupled; inhibition, % at 8.3 µM; 320,000 tested, 0.15% active; Histone deacetylase 3 (Homo sapiens), O15379; in the data active means inhibition above about 26%, passing the limit was not always enough
ALR inh: human ALR oxidase inhibition via reduced H2O2. 290,000 tested, 3.8% active. AID 485317. purified ALR, DTT oxidation, H2O2 HRP-luminol luminescence. inhibition, % (test concentration not listed). P55789;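 active = mean and each replicate at 75% or more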;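 also: stock transfer was 7.5 nL into about 7.5 µL; 0% = neutral wells and 100% = wells with inactivated enzyme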
MC4R barr agon: MC4R agonists recruiting beta-arrestin, primary screen, cell-based, luminescence, agonist arm of biased-ligand search; 360,000 tested, 0.98% active; Melanocortin receptor 4 (Homo sapiens), P32245; U2OS MC4R beta-arrestin complementation; percent of melanotan II response, DMSO zero; activation, % at 8.9 µM;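 active means activation above a per-plate cutoff, the mean activation of sample wells on that plate plus 3 SD, cut at about 8% in these data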
U2OS cAMP counter: nonselective cAMP signaling inhibitors, parental cells, counter-screen for MC4R biased antagonist project, cell-based, TR-FRET, U2OS, forskolin, triplicate | shares compounds with MC4R antag cAMP | LANCE TR-FRET | inhibition, % at 6.5 µM | 1,600 tested, 26% active;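 active means mean inhibition over triplicates above the low-control well mean plus 3 SD, set per campaign, cut at about 13% in these data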;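 further: signal is single emission at 671 nm which falls as cellular cAMP rises; 0% = forskolin-stimulated wells and 100% = buffer without forskolin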
MC4R cAMP antag: MC4R cAMP antagonists, retest, confirmation, cell-based, TR-FRET; MC4R-expressing cells, MTII-stimulated cAMP; AID 602195, 2012; shares compounds with MC4R antag cAMP; inhibition, % at 6.5 µM; 1,600 tested, 27% active; in the data active means inhibition above about 29%;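 further: 0% = agonist stimulated wells alone and 100% = agonist stimulated wells plus saturating reference antagonist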
An asterisk follows results filed as active; nt = no result given.

Chains of the proteins cited; added tags and fusions are not shown.
Melanocortin receptor 4 (Homo sapiens), P32245, UniProt P32245, whole entry, looked up: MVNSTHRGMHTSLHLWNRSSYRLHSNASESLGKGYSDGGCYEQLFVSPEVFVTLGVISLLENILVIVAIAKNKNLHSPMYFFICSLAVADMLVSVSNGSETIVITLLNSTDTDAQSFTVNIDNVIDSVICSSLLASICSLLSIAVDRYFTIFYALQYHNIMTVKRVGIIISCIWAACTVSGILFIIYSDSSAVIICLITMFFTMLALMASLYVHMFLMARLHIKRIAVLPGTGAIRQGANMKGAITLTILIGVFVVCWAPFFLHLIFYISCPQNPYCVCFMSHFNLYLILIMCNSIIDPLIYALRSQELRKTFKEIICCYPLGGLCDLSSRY

| entry | structure | Yeast UUG start | NALP1 yeast inh | MC4R antag cAMP | HDAC3 inhib |
| --- | --- | --- | --- | --- | --- |
| 1 | CCOC(=O)c1cc([N+](=O)[O-])cc([N+](=O)[O-])c1Sc1ncnc2nc[nH]c12 | nt | nt | 58* | nt |
| 2 | CCn1nc(C)cc1-c1nnc(Sc2ncc([N+](=O)[O-])s2)n1C | -20 | 24 | 46* | 3 |
| 3 | c1ccc2c3c(c(CN4CCCC4)cc2c1)COC3 | -35 | 5 | 30* | -8 |
| 4 | COCCNC(=O)C[C@@H]1CC[C@H]2[C@@H](COc3ccc(NC(=O)C4CCOCC4)cc3C(=O)N2C)O1 | -7 | nt | nt | nt |
| 5 | Cc1noc(C)c1NC(=O)N(C)C[C@@H]1Oc2ccc(N(C)C)cc2CC(=O)N([C@@H](C)CO)C[C@@H]1C | -7 | nt | nt | nt |
| 6 | CCCC#Cc1cnc2c(c1)C(=O)N([C@@H](C)CO)C[C@H](C)[C@@H](CN(C)Cc1ccncc1)O2 | -5 | nt | nt | nt |
| 7 | COC(=O)c1c(NC(=O)C2COc3ccccc3O2)sc2c1CCN(Cc1ccccc1)C2 (stereo not drawn) | nt | 31 | 8 | -5 |
| 8 | COC(=O)c1c(NC(=O)C2COc3ccccc3O2)sc2c1CCN(C(=O)OC)C2 (stereo not drawn) | -1 | nt | 31* | nt |
| 9 | COc1ccc(Cl)cc1NC(=O)c1ccccc1C | -18 | 2 | 4 | 3 |
| 10 | COc1ccc(Cl)cc1NC(=S)Nc1ccccc1C | nt | 6 | 29* | -1 |
| 11 | N#CC(C#N)=C1C=CC=CN1/C(=C\c1ccco1)C(=O)c1ccc(-c2ccccc2)cc1 | nt | 26 | 31* | -8 |
| 12 | N#C/C(=C\c1ccco1)C(=O)NCc1ccccc1 | nt | 3 | 7 | -1 |
| 13 | O=C(NCC1CCCO1)/C(=C\c1ccco1)NC(=O)c1ccc(Cl)cc1 (stereo not drawn) | nt | -11 | -6 | 0 |
| 14 | N#CC(C#N)=C1C=CC=CN1/C(=C\c1ccco1)C(=O)c1ccc(Cl)cc1 | nt | 3 | 34* | 0 |
| 15 | C[C@@H]1CN([C@@H](C)CO)S(=O)(=O)c2ccc(-c3cccc(C(=O)N(C)C)c3)cc2O[C@@H]1CN(C)C(=O)Cc1ccccn1 | -5 | nt | nt | nt |

| entry | ALR inh | MC4R barr agon | U2OS cAMP counter | MC4R cAMP antag |
| --- | --- | --- | --- | --- |
| 1 | nt | -3 | 47* | 47* |
| 2 | nt | -3 | 28* | 58* |
| 3 | 5 | 0 | 1 | -18 |
| 4 | nt | nt | nt | nt |
| 5 | nt | nt | nt | nt |
| 6 | nt | nt | nt | nt |
| 7 | -10 | 2 | nt | nt |
| 8 | nt | 1 | 2 | 26 |
| 9 | -11 | -1 | nt | nt |
| 10 | -2 | 0 | -2 | -2 |
| 11 | 22 | -4 | 0 | 13 |
| 12 | 0 | -2 | nt | nt |
| 13 | 1 | -2 | nt | nt |
| 14 | nt | -3 | 29* | 43* |
| 15 | nt | nt | nt | nt |

| entry | structure | Yeast UUG start | NALP1 yeast inh | MC4R antag cAMP | HDAC3 inhib |
| --- | --- | --- | --- | --- | --- |
| 16 | CNC(=O)C[C@H]1CC[C@H]2[C@@H](COc3ccc(NC(=O)c4cccs4)cc3C(=O)N2C)O1 | -5 | nt | nt | nt |
| 17 | COCC(=O)N(C)C[C@@H]1Oc2ncc(C#C[C@@H](C)O)cc2C(=O)N([C@H](C)CO)C[C@@H]1C | -12 | nt | nt | nt |
| 18 | COc1ccc(C(=O)NCC(=O)OCC(=O)NCc2ccco2)cc1 | -1 | nt | 9 | 12 |
| 19 | Cc1cc(C)cc(C(=O)NCC(=O)OCC(=O)NCc2ccco2)c1 | nt | -10 | 39* | 3 |
| 20 | COc1ccc(S(=O)(=O)N(C)C[C@@H]2Oc3ccc(NC(=O)NC(C)C)cc3C(=O)N([C@@H](C)CO)C[C@H]2C)cc1 | 3 | nt | nt | nt |
| 21 | CC(C)OP(=O)(OC(C)C)/C(C=O)=N\Nc1ccc([N+](=O)[O-])cc1 | 11 | -4 | 39* | -3 |

| entry | ALR inh | MC4R barr agon | U2OS cAMP counter | MC4R cAMP antag |
| --- | --- | --- | --- | --- |
| 16 | nt | nt | nt | nt |
| 17 | nt | nt | nt | nt |
| 18 | nt | -1 | nt | nt |
| 19 | 0 | 5 | 5 | 11 |
| 20 | nt | nt | nt | nt |
| 21 | 6 | -3 | 9 | 8 |

Another view of 3 compounds above.
16) CNC(=O)C[C@H]1CC[C@H]2[C@@H](COc3ccc(NC(=O)c4cccs4)cc3C(=O)N2C)O1
  Yeast UUG start = -5; NALP1 yeast inh = nt; MC4R antag cAMP = nt; HDAC3 inhib = nt; ALR inh = nt; MC4R barr agon = nt; U2OS cAMP counter = nt; MC4R cAMP antag = nt

20) COc1ccc(S(=O)(=O)N(C)C[C@@H]2Oc3ccc(NC(=O)NC(C)C)cc3C(=O)N([C@@H](C)CO)C[C@H]2C)cc1
  Yeast UUG start = 3; NALP1 yeast inh = nt; MC4R antag cAMP = nt; HDAC3 inhib = nt; ALR inh = nt; MC4R barr agon = nt; U2OS cAMP counter = nt; MC4R cAMP antag = nt

19) Cc1cc(C)cc(C(=O)NCC(=O)OCC(=O)NCc2ccco2)c1
  Yeast UUG start = nt; NALP1 yeast inh = -10; MC4R antag cAMP = 39*; HDAC3 inhib = 3; ALR inh = 0; MC4R barr agon = 5; U2OS cAMP counter = 5; MC4R cAMP antag = 11
